# Reference: ChEMBL document CHEMBL3784975, “Derivatization of agelastatin A leading to bioactive analogs and a trifunctional probe” (Bioorg Med Chem Lett, 2016)
# What was measured:
# [1] = Plasma protein binding in human by liquid chromatography-mass spectrometric analysis; type: ADME, cell-free
# [2] = test system: Plasma; test: Metabolic stability in human plasma assessed as drug recovery; type: ADME, cell-free
structure (smiles),measurement,setting,value
CN1C(=O)N[C@H]2[C@@H]3NC(=O)c4ccc(Br)n4[C@@H]3C[C@]21O [AGELASTATIN A],PPB,[1],23.9%
same,Drug recovery,[2],99.2%
